From article PMC12748375, “Insights into cannabinoid receptor 2 (CB2) anterograde trafficking and pharmacological chaperoning” (Cellular and Molecular Life Sciences: CMLS, 2025)

The chains behind the UniProt entries cited, without tags or fusion partners.
UniProt P34972, whole entry: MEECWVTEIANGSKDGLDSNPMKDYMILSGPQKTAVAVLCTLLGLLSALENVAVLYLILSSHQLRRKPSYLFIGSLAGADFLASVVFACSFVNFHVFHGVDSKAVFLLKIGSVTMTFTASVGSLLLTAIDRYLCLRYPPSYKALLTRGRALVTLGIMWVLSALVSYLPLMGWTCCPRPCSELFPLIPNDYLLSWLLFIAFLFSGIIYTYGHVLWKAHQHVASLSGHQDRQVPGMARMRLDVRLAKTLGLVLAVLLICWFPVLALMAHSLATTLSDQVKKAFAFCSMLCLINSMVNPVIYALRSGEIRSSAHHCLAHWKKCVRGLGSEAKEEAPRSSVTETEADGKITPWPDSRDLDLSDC

Biological target: T1, hCB2 wt (Homo sapiens, UniProt P34972)
T1 construct: gene CNR2; full-length (63Q), N-terminal HA tag and three thrombin cleavage sites (HA-3TCS), pcDNA5/FRT, expressed in HEK Flp-in-293 cells
Assay: receptor internalisation, surface HA immunocytochemistry (Method A)
Assay type: cell-based
Details: read-out: Method A: Internalisation (3 h) / CB2 wt / pEC50 (± SEM) (converted)
Excerpt: receptor internalisation, surface HA immunocytochemistry (Method A) on hCB2 wt

Work on CCCCC/C=C\C/C=C\C/C=C\C/C=C\CCCC(=O)NCCO [AEA] yielded an EC50 of 0.447 µM.
